According to ChEMBL document CHEMBL5500350, “Advances in TRPV6 inhibitors for tumors by targeted therapies: Macromolecular proteins, synthetic small molecule compounds, and natural compounds” (Eur J Med Chem, 2024):
pIC50: −log10 of the molar value.

Molecular target: T1, Transient receptor potential cation channel subfamily V member 6 (Homo sapiens, UniProt Q9H1D0)
T1 sequence (Q9H1D0 whole entry): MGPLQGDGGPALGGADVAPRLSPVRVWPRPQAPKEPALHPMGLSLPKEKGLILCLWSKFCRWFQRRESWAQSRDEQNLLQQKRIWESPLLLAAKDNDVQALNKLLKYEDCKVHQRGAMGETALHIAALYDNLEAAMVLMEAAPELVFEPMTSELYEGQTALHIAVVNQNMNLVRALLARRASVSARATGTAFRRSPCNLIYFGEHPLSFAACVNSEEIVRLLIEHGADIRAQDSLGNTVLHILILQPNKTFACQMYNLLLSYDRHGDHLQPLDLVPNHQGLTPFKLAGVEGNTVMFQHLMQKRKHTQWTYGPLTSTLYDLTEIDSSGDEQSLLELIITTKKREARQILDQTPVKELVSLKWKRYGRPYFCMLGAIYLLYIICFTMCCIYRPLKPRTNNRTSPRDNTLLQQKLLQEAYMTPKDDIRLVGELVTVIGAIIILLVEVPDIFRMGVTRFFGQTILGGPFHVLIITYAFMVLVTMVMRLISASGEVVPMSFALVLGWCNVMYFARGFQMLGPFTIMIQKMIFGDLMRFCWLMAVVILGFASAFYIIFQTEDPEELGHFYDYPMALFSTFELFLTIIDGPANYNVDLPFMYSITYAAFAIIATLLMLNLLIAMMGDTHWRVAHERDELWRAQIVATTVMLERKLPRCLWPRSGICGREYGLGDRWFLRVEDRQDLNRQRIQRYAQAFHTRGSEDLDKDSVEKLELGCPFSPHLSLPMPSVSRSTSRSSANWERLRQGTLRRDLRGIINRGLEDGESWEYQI

pIC50: 4.95
SMILES: c1ccc([C@H]2CC[C@H](N3CCN(Cc4cccnc4)CC3)CC2)cc1
